Results taken from PubChem BioAssay AID652126 (The Scripps Research Institute Molecular Screening Center, 2013).
Only a part is listed here, and it is no random draw. Calls of active or inactive are those of the source.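 How the source made its calls: active means activation above the mean over all tested compounds plus 3 SD (cut at about 0.9% in these data); inactive means the rest.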

The compounds below were run on Nuclear hormone receptor DAF-12 (Strongyloides stercoralis) (assay: S. stercoralis DAF-12 nuclear receptor activators, primary screen, cell-based, luminescence, HEK293, GRIP1 co-expression, lit1-tk-luc (AID 652126;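 further: 0% = DMSO-only wells and 100% = 3 µM delta7-dafachronic acid wells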)). Conditions: HEK293 ssDAF-12/GRIP1 lit1-tk-luc reporter, at 6.8 µM, active compounds read high, % of 3 µM dafachronic acid response.

Row | SMILES | activation
1 | CCOC(=O)Nc1cccc([As](=O)(O)O)c1 | inactive: -0.57%
2 | O=[N+]([O-])c1ccc(Nc2ccc(Oc3ccc([N+](=O)[O-])cc3[N+](=O)[O-])cc2)c([N+](=O)[O-])c1 | inactive: -1.36%
3 | Cc1cc(SC(NC=O)C(Cl)(Cl)Cl)ncn1 (stereo not given) | inactive: -1.19%
4 | O=P(Nc1ccccn1)(c1cccc2ccccc12)c1cccc2ccccc12 | inactive: -1.06%
5 | CC1CCNP(=O)(N(CCCl)CCCl)O1 (stereo not given) | inactive: -1.44%
6 | O=C(O)C(O)c1ccc(N(CCCl)CCCl)cc1 (stereo not given) | inactive: -0.34%
7 | CCOC(=O)Nc1ccc([As](=O)(O)O)c(O)c1 | inactive: -1.23%
8 | Cc1cc(SC(NC(=O)c2ccccc2)C(Cl)(Cl)Cl)nc(C(C)C)n1 (stereo not given) | inactive: -0.88%
9 | CCCCOc1ccc(C(=O)NCC2(N3CCCCC3)CCCCC2)cc1OC | inactive: -1.21%
10 | COP(=O)(OC)N1CC1c1ccccc1 (stereo not given) | inactive: -1.24%
11 | CCOC(=O)c1ccc(NC(=O)C(C)(CCl)SC)cc1 (stereo not given) | inactive: 0.49%
12 | O=C(OC1CN2CCC1CC2)c1cccc([N+](=O)[O-])c1 (stereo not given) | inactive: -1%
13 | CCC(C)N(CC(C)C)C(=S)SC(NC(C)=O)C(Cl)(Cl)Cl (stereo not given) | inactive: -1.12%
14 | COC(=O)C1(C)COP(=O)(N2CCCC2)OC1 (stereo not given) | inactive: -0.23%
15 | COP1(=S)c2c(C)nn(CCC#N)c2N=C(c2ccc(F)cc2)N1C (stereo not given) | inactive: -1.71%
16 | O=C(Nc1ccncc1[N+](=O)[O-])c1ccc([N+](=O)[O-])cc1[N+](=O)[O-] | inactive: -0.92%
17 | O=C(COc1ccccc1)OC1CN2CCC1CC2 (stereo not given) | inactive: -1.25%
18 | O=C(O)C(=O)c1ccc(N(CCCl)CCCl)cc1 | inactive: -0.8%
19 | COc1ccc(N/C(=N/P(=O)(N2CCOCC2)N2CCOCC2)N2CCOCC2)cc1 | inactive: -1.44%
20 | O=[N+]([O-])c1cc(Oc2ccc([N+](=O)[O-])cc2C(F)(F)F)cc([N+](=O)[O-])c1 | inactive: -0.71%
21 | Cc1cc(=O)[nH]c(N[N+](=O)[O-])n1 | inactive: -1.18%
22 | O=C(OC1CN2CCC1CC2)C12CC3CC(CC(C3)C1)C2 (stereo not given) | inactive: -0.8%
23 | Cc1c2c(nc3ccccc13)SC(C(Cl)Cl)C2 (stereo not given) | inactive: -1.82%
24 | COc1cc(I)ccc1[As](=O)(O)O | inactive: 0.02%
25 | COc1ccc2nc(NP(=O)(c3ccccc3)c3ccccc3)sc2c1 | inactive: -1.53%

Row | SMILES | activation
26 | O=P1(N(CCCl)CCCl)Nc2ccccc2N1 | inactive: 0.53%
27 | O=P1(N(CCCl)CCCl)OCCCN1CCCl (stereo not given) | inactive: -0.52%
28 | CC(C)c1ccc(OP(=O)(Nc2ccccn2)Oc2ccccc2F)cc1 (stereo not given) | inactive: -1.16%
29 | COC(=O)C1(C)COP(=O)(N2CCCCCC2)OC1 (stereo not given) | inactive: -0.4%
30 | ClCCSc1nnc(-c2cccnc2)o1 | inactive: -0.03%
31 | O=C(OC1CN2CCC1CC2)c1cccc2[nH]cnc12 (stereo not given) | inactive: -0.76%
32 | CCN(CC)C(=S)SC(NC=O)C(Cl)(Cl)Cl (stereo not given) | inactive: -0.14%
33 | CC(C)NC(=O)NP(=O)(Oc1ccccc1)Oc1ccccc1 | inactive: -0.64%
34 | COc1cc(C(=O)NCC2(N3CCOCC3)CCCCC2)ccc1OCC(C)C | inactive: -1.09%
35 | O=[N+]([O-])c1ccc(-c2cc([N+](=O)[O-])c(O)c([N+](=O)[O-])c2)cc1 | inactive: -1.59%
36 | C[As](=O)(O)c1cccc(C(=O)O)c1 | inactive: 0.69%
37 | O=[As](O)(c1ccc(O)cc1)c1ccccc1O | inactive: -1.46%
38 | Cc1ccc2nc3c(c(C)c2c1)CC(C(Cl)Cl)S3 (stereo not given) | inactive: -0.21%
39 | Cc1ccc(OP(=O)(Nc2ccc([N+](=O)[O-])cn2)Oc2ccc(C)cc2)cc1 | inactive: -1.46%
40 | [N-]=[N+]=NC1CCCCC1NC(=O)c1cc([N+](=O)[O-])cc([N+](=O)[O-])c1 (stereo not given) | inactive: -1.02%
41 | NC(=O)Nc1ccc([As](=O)(O)O)cc1 | inactive: -1.4%
42 | CN(C(=O)Cc1ccc(Cl)c(Cl)c1)[C@H]1CC[C@@]2(CCCO2)C[C@@H]1N1CCCC1 | inactive: 0.01%
43 | CN(C)C(=O)c1cc([N+](=O)[O-])cc2c1-c1c(cc([N+](=O)[O-])cc1[N+](=O)[O-])C2=O | inactive: -0.33%
44 | O=[N+]([O-])c1ccc2c(c1)nnn2O | inactive: -1.21%
45 | CCOP1(=S)c2c(C)nn(CCC#N)c2N=C(c2ccc(F)cc2)N1C (stereo not given) | inactive: -1.58%
46 | CN(C(=O)Cc1ccccc1)[C@@H]1CC[C@]2(CCCO2)C[C@H]1N1CCCC1 | inactive: 0.69%
47 | N#CCCN(C(=O)COC(=O)C(O)(c1ccccc1)c1ccccc1)c1ccc(F)cc1 | inactive: -1.05%
48 | O=P(Nc1nccs1)(Oc1ccccc1)Oc1ccccc1 | inactive: -0.65%
49 | CCOP1(=S)c2c(C)nn(CCC#N)c2N=C(c2ccccc2F)N1C (stereo not given) | inactive: -1.45%
50 | O=C(O)COc1ccc([As](=O)(O)O)cc1[N+](=O)[O-] | inactive: -1.5%
